Results: PubChem BioAssay AID1441 (NMMLSC, 2008)
The list shows a part of the results, in another mix than the full data. Some salts and complexes are drawn in separate pieces, as the source files them; their charges need not balance. The source made the active and inactive calls. No rule for the calls is given here.

Chains of the proteins cited; added tags and fusions are not shown.
UniProt O15492, whole entry, looked up: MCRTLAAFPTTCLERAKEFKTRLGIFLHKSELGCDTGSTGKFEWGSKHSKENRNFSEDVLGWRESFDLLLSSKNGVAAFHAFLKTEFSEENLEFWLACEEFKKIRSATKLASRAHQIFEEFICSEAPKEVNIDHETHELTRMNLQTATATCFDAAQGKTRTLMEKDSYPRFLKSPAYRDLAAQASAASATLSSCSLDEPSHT
UniProt P09471, whole entry, looked up: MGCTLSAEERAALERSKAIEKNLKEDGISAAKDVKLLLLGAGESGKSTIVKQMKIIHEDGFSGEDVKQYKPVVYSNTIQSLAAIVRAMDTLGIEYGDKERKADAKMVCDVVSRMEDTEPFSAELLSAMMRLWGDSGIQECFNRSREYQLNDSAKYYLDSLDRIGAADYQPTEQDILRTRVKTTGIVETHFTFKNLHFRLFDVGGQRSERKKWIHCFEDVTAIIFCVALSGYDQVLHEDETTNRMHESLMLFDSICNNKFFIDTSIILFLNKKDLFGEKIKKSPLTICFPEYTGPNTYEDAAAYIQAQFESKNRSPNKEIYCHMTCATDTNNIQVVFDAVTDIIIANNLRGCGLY

target: Regulator of G-protein signaling 16 (Homo sapiens) + Guanine nucleotide-binding protein G(o) subunit alpha (Homo sapiens) (UniProt O15492+P09471); assay: RGS16-Galphao interaction inhibitors and enhancers – biochemical, human proteins, multiplexed bead flow cytometry, primary screen (AID 1441); details: bead-based flow cytometry RGS16-Galphao binding, fluorescence; at 10 µM; actives lie on both sides;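 also: Galphao activated by GDP with aluminum fluoride before binding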

Compound	binding response (% of control)
CCc1ccc(OP(C)(=O)O)cc1	inactive: 95.2%
COc1ccccc1OP(C)(=O)Nc1ccc(C)cc1C (configuration not stated)	inactive: 99.6%
CP(=O)(Nc1ccccn1)Oc1ccccc1 (configuration not stated)	inactive: 110%
O=C(NC(Sc1ccncn1)C(Cl)(Cl)Cl)c1ccccc1 (configuration not stated)	inactive: 85.5%
Cc1c2non([O-])c-2c(C)[n+](=O)[n+]1[O-]	inactive: 62.1%
Nc1cc(N)c2nonc2c1[N+](=O)[O-]	inactive: 107%
Cc1c(NP(C)(=O)Oc2ccc(C(C)C)cc2)c(=O)n(-c2ccccc2)n1C (configuration not stated)	inactive: 100%
O=[N+]([O-])c1cc([N+](=O)[O-])c(Nc2ccccn2)c([N+](=O)[O-])c1	inactive: 107%
CC(C)CC(=O)NC(Sc1ccc(Cl)cc1)C(Cl)(Cl)Cl (configuration not stated)	inactive: 98%
CN1CCCC(OC(=O)C(c2ccccc2)c2ccccc2)C1 (configuration not stated)	inactive: 105%
CN(C)CCOC(=O)C(O)(c1ccccc1)C1CCCC1 (configuration not stated)	inactive: 100%
Cc1ccc(OP(=O)(Nc2nccs2)Oc2ccc(C)cc2)cc1	inactive: 108%
COc1ccc(OP(C)(=O)Nc2ccccn2)cc1 (configuration not stated)	inactive: 172%
COc1ccccc1OP(C)(=O)Nc1ccc(Br)cc1 (configuration not stated)	inactive: 91.6%
CP(=O)(Nc1ccc(Cl)cc1Cl)Oc1ccccc1 (configuration not stated)	inactive: 90.5%
CP(=O)(OCCOc1ccccc1)OCCOc1ccccc1	inactive: 104%
Nc1cccc2ccc([As](=O)(O)O)cc12	inactive: 96.3%
CCN(N=Nc1nonc1N)c1nonc1N	inactive: 98.9%
Cc1nc2ccc3ccccc3c2o1.O=[N+]([O-])c1cc([N+](=O)[O-])c(O)c([N+](=O)[O-])c1	inactive: 113%
COc1ccc(OP(C)(=O)Nc2ccccc2Br)cc1 (configuration not stated)	inactive: 97.9%
COc1ccccc1OP(C)(=O)Nc1ccc(C)c(C)c1 (configuration not stated)	inactive: 101%
Cc1ccc(NP(=O)(Oc2ccccc2F)Oc2ccccc2F)nc1	inactive: 115%
Cc1cc(SC(NC(=O)c2ccc(F)cc2)C(Cl)(Cl)Cl)ncn1 (configuration not stated)	inactive: 96.6%
CCOP(=O)(Nc1ccccc1)OCC	inactive: 106%
O=P(Nc1nc2ccc(Cl)cc2s1)(c1ccccc1)c1ccccc1	inactive: 93.6%
Cc1cc(C)cc(OP(C)(=O)Nc2cccc(C(F)(F)F)c2)c1 (configuration not stated)	inactive: 103%

Compound	binding response (% of control)
CC(=O)Nc1ccc([As](=O)(O)O)cc1	inactive: 93.4%
O=C(O)c1ccccc1[As](=O)(O)O	inactive: 97.5%
O=C(O)CNc1ccc([As](=O)(O)O)cc1	inactive: 126%
O=[N+]([O-])c1cccc(NC2=NCC(CBr)S2)c1 (configuration not stated)	inactive: 100%
O=[N+]([O-])c1ncn(CCn2ncnc2[N+](=O)[O-])n1	inactive: 105%
CC(C)(C)C(=O)NC(Sc1ccncn1)C(Cl)(Cl)Cl (configuration not stated)	inactive: 97.2%
CP(=O)(OC12CC3CC(CC(C3)C1)C2)OC12CC3CC(CC(C3)C1)C2	inactive: 102%
CCOC(=O)c1ccc(NP(C)(=O)Oc2ccc(Cl)cc2)cc1 (configuration not stated)	inactive: 79.3%
CC1CCN(C(=O)Oc2c(Cl)cc(Cl)c3cccnc23)CC1	inactive: 90.2%
CN(C)C(=O)OCCc1n(C)cc[n+]1C	inactive: 104%
CC(C)=N/N=C(\N)N[N+](=O)[O-]	inactive: 48.6%
CN(C)C(=O)c1c([N+](=O)[O-])cc([N+](=O)[O-])cc1[N+](=O)[O-]	inactive: 92.2%
CP(=O)(Nc1ccc(Cl)cc1)Oc1ccc(F)cc1 (configuration not stated)	inactive: 103%
CCN(/C(=N/P(=O)(N1CCOCC1)N1CCOCC1)N1CCOCC1)c1ccc(OC)cc1	inactive: 105%
C[N+]1=C2C=CC=CC=C2SC12C([N+](=O)[O-])=CC([N+](=O)[O-])=C[C-]2[N+](=O)[O-] (configuration not stated)	inactive: 74.2%
COc1ccccc1OP(C)(=O)Nc1ccccc1Br (configuration not stated)	inactive: 107%
CC(C)(C)c1ccc(OP(C)(=O)O)cc1	inactive: 100%
CCc1ccc(OP(C)(=O)Nc2cccnc2)cc1 (configuration not stated)	inactive: 99.1%
O=[N+]([O-])c1cc([N+](=O)[O-])c(CCNc2ccccc2)c([N+](=O)[O-])c1	inactive: 105%
CCc1nc2c(n1)c1c(non1O)c1c2no[n+]1[O-]	inactive: 106%
Cc1ccc(NP(=O)(Oc2ccccc2)Oc2ccccc2)nc1	inactive: 102%
CP(=O)(Oc1ccccc1)N1CCOC1=O (configuration not stated)	inactive: 108%
O=C(OCCCN1CCCC1)C(O)(c1ccccc1)C1CCCCC1 (configuration not stated)	inactive: 106%
O=[N+]([O-])c1cccc2n[nH]nc12	inactive: 96.8%
COc1ccc(C2=NCC(CBr)S2)cc1 (configuration not stated)	inactive: 110%
COc1ccc(OP(C)(=O)Nc2ccc(Br)cc2)cc1 (configuration not stated)	inactive: 37.2%

Compound	binding response (% of control)
CCN(CC)CC(O)COC(=O)C(O)(c1ccccc1)C1CCCCC1 (configuration not stated)	inactive: 103%
Cc1ccccc1NP(C)(=O)Nc1ccccc1C	inactive: 106%
CP(=O)(Nc1ccc2c(c1)OCCO2)Oc1ccccc1 (configuration not stated)	inactive: 49.3%
c1nnnn1CCn1cnnn1	inactive: 95.9%
CCOP(C)(=S)SCC(=O)NC(C)(CC)C(=O)O (configuration not stated)	inactive: 105%
O=P(Nc1nccs1)(c1ccccc1)c1ccccc1	inactive: 100%
CC(C)C(=O)NC(Sc1ccccc1)C(Cl)(Cl)Cl (configuration not stated)	inactive: 103%
CP(=O)(Nc1ccc(SC(F)(F)F)cc1)Oc1ccc(F)cc1 (configuration not stated)	inactive: 97.4%
O=C(OC1CN2CCC1CC2)c1cccc(Cl)c1 (configuration not stated)	inactive: 89.6%
C(Cc1nn[nH]n1)Cc1nn[nH]n1	inactive: 104%
Nc1ccc([As](=O)(O)c2ccc([N+](=O)[O-])cc2)cc1	inactive: 90.7%
O=[N+]([O-])c1cc([N+](=O)[O-])c(NCC2CCS(=O)(=O)C2)c([N+](=O)[O-])c1 (configuration not stated)	inactive: 98.5%
Cc1cc(-c2cccc3ccccc23)c(C)cn1.O=[N+]([O-])c1cc([N+](=O)[O-])c(O)c([N+](=O)[O-])c1	inactive: 110%
O=[As](O)(c1ccccc1)c1ccc(O)cc1	inactive: 82%
O=[N+]([O-])c1ncn(CCn2cnc([N+](=O)[O-])n2)n1	inactive: 97.6%
O=[N+]([O-])c1ccc(OP2(=O)COCCO2)cc1 (configuration not stated)	inactive: 95.7%
CC(=O)NC(SC(=S)N(C)C)C(Cl)(Cl)Cl (configuration not stated)	inactive: 107%
COc1ccc(NP(C)(=O)Oc2ccccc2OC)cc1 (configuration not stated)	inactive: 101%
O=P(Nc1nc2ccccc2s1)(c1ccccc1)c1ccccc1	inactive: 99.3%
CN(C)CCOC(=O)C(O)(c1ccccc1)C1CCCCC1 (configuration not stated)	inactive: 105%
O=P(Nc1ccccn1)(c1ccc(Br)cc1)c1ccc(Br)cc1	inactive: 90.4%
COc1ccc(OP(C)(=O)Nc2cccc(Br)c2)cc1 (configuration not stated)	inactive: 98.6%
CCCCCOc1ccc(NP(C)(=O)Oc2ccc(Cl)cc2Cl)cc1 (configuration not stated)	inactive: 97.2%
CN(C)C(=O)Oc1noc2ccccc12	inactive: 95.8%
Cc1ccccc1OP(=O)(Nc1ccccn1)Oc1ccccc1C	inactive: 104%
CP(=O)(Nc1ccccc1)Oc1ccc(F)cc1 (configuration not stated)	inactive: 101%

Compound	binding response (% of control)
CCC(=O)N1C2C3N(C(=O)CC)C1C1N(C(=O)CC)C(C(N1C(=O)CC)N3C(=O)CC)N2C(=O)CC	inactive: 144%
Cc1ccc(OP(=O)(Nc2ccccn2)Oc2ccc(C)cc2)cc1	inactive: 107%
COC(=O)c1cc2c(s1)N=C(c1ccccc1)N(C)P2(=O)N1CCOCC1 (configuration not stated)	inactive: 119%
COc1ccc(OP(C)(=O)Nc2ccc(SC(F)(F)F)cc2)cc1 (configuration not stated)	inactive: 102%
CCOC(=O)c1ccc(NP(C)(=O)Oc2ccc(F)cc2)cc1 (configuration not stated)	inactive: 93.2%
CCOC(=O)NC(Sc1ccccc1)C(Cl)(Cl)Cl (configuration not stated)	inactive: 84.9%
c1ccc(-c2nn[nH]n2)c(-c2nn[nH]n2)c1	inactive: -1.45%
O=C(NC1CCS(=O)(=O)C1)NP(=S)(Oc1ccccc1)Oc1ccccc1 (configuration not stated)	inactive: 105%
CCNC(=S)/N=C(\N)N[N+](=O)[O-]	inactive: 99.9%
CC(=O)Nc1ccc(Oc2c([N+](=O)[O-])cc([N+](=O)[O-])cc2[N+](=O)[O-])cc1	inactive: 103%
CC(=O)Nc1ccc([As](=O)(O)O)c(O)c1	inactive: 103%
COc1ccc2c(c1O)-c1c(O)c(OC)cc3c1[C@H](C2)[N+](C)(C)CC3.O=[N+]([O-])c1cc([N+](=O)[O-])c([O-])c([N+](=O)[O-])c1[O-]	inactive: 92.7%
C[C@H]1OP(=O)(Oc2ccccc2)C[C@@H]2O[C@@H]21 (some centres not stated)	inactive: 99.8%
C[C@@H]1C=CCP(=O)(Oc2ccccc2)O1 (some centres not stated)	inactive: 102%
O=C(OCCN1CCN(CCOCc2ccccc2)CC1)C(O)(c1ccccc1)c1ccccc1	inactive: 96.7%
O=C(OC1CN2CCC1CC2)c1ccc([N+](=O)[O-])cc1 (configuration not stated)	inactive: 102%
CC(C)c1ccc(OP(C)(=O)Nc2ccc(SC(F)(F)F)cc2)cc1 (configuration not stated)	inactive: 101%
CC(C)(C)C(=O)NC(Sc1ccccc1)C(Cl)(Cl)Cl (configuration not stated)	inactive: 99%
CP(=O)(Nc1ccccc1F)Oc1ccccc1 (configuration not stated)	inactive: 92.9%
CCOc1ccc(C2=NCC(CBr)S2)cc1 (configuration not stated)	inactive: 135%
CCOP(=O)(Nc1cccc2ccccc12)OCC	inactive: 100%
Nc1cccc2c([As](=O)(O)O)cccc12	inactive: 27.8%
Cc1ccc(NCCc2c([N+](=O)[O-])cc([N+](=O)[O-])cc2[N+](=O)[O-])cc1	inactive: 87%
Cc1cc(C)cc(OP(C)(=O)Nc2ccccn2)c1 (configuration not stated)	inactive: 103%
